Test results taken from EP0392976A1, “Monoclonal antibodies to tetracyclic compounds, processes for their production, and applications” (CIBA-GEIGY AG, priority 1989, dated 1990).

Molecular target: MAb 1226S31.3
Assay: inhibition enzyme immunoassay: inhibition of MAb binding to surface bound R-(-)-oxaprotiline-mucin conjugate
Design: species or system mouse
Conditions: therapeutic drugs and biogenic amines, 1 µM-150 pM, preincubated overnight

For NC(=O)N1c2ccccc2C=Cc2ccccc21 [Carbamazepine, 5H-dibenzo[b,f]azepine-5-carboxamide], the IC50 was > 1000 nM.

With CNC1=Nc2ccc(Cl)cc2C(c2ccccc2)=[N+]([O-])C1 [Chlordiazepoxide, 7-chloro-N-methyl-5-phenyl-3H-1,4-benzodi-azepine-2-amine-4-oxide] the IC50 was > 1000 nM.
